# scFv variants of Ab-14 (light chain) against a SARS-CoV-2 spike peptide

Values reported by Engelhart et al. 2022, doi:10.1038/s41597-022-01779-4 (FLAb copy).

All variants were tested on one target, the spike HR2 peptide PDVDLGDISGINAS (SARS-CoV-2).

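Phage display of a naive human antibody library on the peptide gave the parent. Library AAYL50 holds single substitutions and randomly drawn double and triple substitutions in the CDRs. AlphaSeq pools MATa yeast showing the antibodies with MATalpha yeast showing the peptide. Pairs that bind mate more often; barcode pairs of the diploids are counted by sequencing. Read counts were normalised to the haploid input and turned into Kd by a linear fit to BCL2-family pairs of known affinity, for each replicate. The assay was run in three technical replicates.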

The variants keep the heavy chain, the linker and the frameworks of Ab-14 (scFv order VH, the linker GGGGSGGGGSGGGGS, VL).
VH: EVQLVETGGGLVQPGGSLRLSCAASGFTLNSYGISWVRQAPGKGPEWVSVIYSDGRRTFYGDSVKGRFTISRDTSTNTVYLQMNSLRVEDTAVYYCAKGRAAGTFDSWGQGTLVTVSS
VL: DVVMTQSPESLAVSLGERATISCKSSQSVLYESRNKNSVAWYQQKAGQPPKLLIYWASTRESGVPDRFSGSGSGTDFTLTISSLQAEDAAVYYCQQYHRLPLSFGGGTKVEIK

Changes read parent residue, position, new residue, counted from the first residue of the VL shown.
Numbers give log10(Kd / nM), so 0 is 1 nM and 3 is 1 µM. Smaller is tighter.
Replicates are averaged; those with no signal do not enter the mean.
A pair that was not seen in that replicate is written "ND"; this usually means weak binding, but a binder can also be missed.
Three control strains display no target. For library AAYL50, 18% of the pairings with them gave a signal, with a median of 4.19 and one signal in twenty below 2.99, so weak values seen in few replicates may be background. For each scFv, signals with the empty controls are counted beside the result, with their mean in brackets.

changes | log10 Kd, replicates | mean, log10 nM | empty controls
S25Y+S26G+S58A | ND / ND / 3.03 | 3.03 | 0/9
R34L+Q95L+P101R | 1.34 / 1.50 / 1.72 | 1.52 | 0/9
K24A+W56V+Q96L | 5.28 / 4.74 / 5.29 | 5.10 | 8/9 (4.62)
K36F+S38H+L102M | 4.83 / ND / ND | 4.83 | 1/9 (5.53)
S28N+W56R+Q95Y | ND / ND / 3.65 | 3.65 | 2/9 (4.49)
L30Q+Y31H+S33M | ND / ND / ND | ND | 0/9
S62C+L100A | 1.72 / 3.06 / 2.18 | 2.32 | 2/9 (2.99)
V29T+W56E+L100R | 5.24 / 3.05 / ND | 4.15 | 4/9 (3.85)
V39Y+R60W+R99Y | ND / ND / 3.91 | 3.91 | 2/9 (3.43)
S28C+N35F+Q96W | 3.91 / 3.53 / 5.86 | 4.43 | 4/9 (4.48)
S62D+Q95V+S103C | ND / ND / ND | ND | 0/9
R34H+A57Y+Q95H | ND / ND / ND | ND | 1/9 (2.91)
N37W+Y97S+S103Q | 1.78 / 1.85 / 1.69 | 1.77 | 4/9 (4.24)
Q27C+N37F+L100H | ND / ND / ND | ND | 0/9
S25R+R60T+H98N | ND / ND / ND | ND | 1/9 (4.24)
S25Q+N35H+Q96I | ND / 5.21 / 3.70 | 4.46 | 0/9
S25W+V29G+L102C | 0.83 / 1.07 / 0.92 | 0.94 | 0/9
S25N+S26H+Q27A | 1.30 / 1.49 / 1.53 | 1.44 | 2/9 (4.87)
K36D+V39Q+S62W | ND / ND / ND | ND | 0/9
S25E+Q96V+R99I | 1.76 / 1.75 / 1.68 | 1.73 | 1/9 (2.93)
N35I+N37I+L102K | 0.70 / 0.70 / 0.61 | 0.67 | 1/9 (4.43)
N35W+Y97A+H98L | ND / ND / ND | ND | 1/9 (4.69)
R60D+H98T+L100I | ND / 4.39 / ND | 4.39 | 0/9
L30R+A57M+L100P | 5.66 / 3.52 / 4.31 | 4.50 | 4/9 (4.60)
A57P+E61T+H98W | ND / 2.68 / ND | 2.68 | 3/9 (3.61)
E32N+R34Q+P101G | 0.63 / 0.93 / 0.90 | 0.82 | 0/9
K24Q+N37M+A40M | ND / ND / ND | ND | 0/9
S25C+S26F+Q95F | ND / ND / ND | ND | 0/9
K36Y+Q96R+P101A | 0.62 / 1.02 / 0.86 | 0.83 | 3/9 (3.80)
E32D+T59W+Q96L | ND / ND / 3.83 | 3.83 | 1/9 (4.01)
Q27G+Y31M+S103Y | 1.36 / 1.17 / 1.51 | 1.35 | 0/9
S28Q+S38T+P101Q | 3.09 / 2.72 / 3.38 | 3.06 | 2/9 (4.10)
Q27V+E32G+R60I | 2.73 / 3.41 / 2.96 | 3.03 | 0/9
L30R+S38G+A57F | ND / ND / ND | ND | 4/9 (4.35)
Y31E+Q95L+L102D | ND / 2.02 / ND | 2.02 | 0/9
Q27K+R34C+R99I | ND / ND / ND | ND | 0/9